Here are results for two compounds from article PMC7897990, “TriTOX: A novel Trichomonas vaginalis assay platform for high-throughput screening of compound libraries” (International Journal for Parasitology: Drugs and Drug …, 2021).

In series [1] the test system is nontumorigenic neonatal foreskin fibroblast (NFF) cell line.
The test system of series [2] is Trichomonas vaginalis G3 trophozoites. The note with it: HTS, parasite screen at 1 µg/mL, replicate 2, raw absorbance.

Turning to `O=C(O)c1cccc(C(=O)O)n1` [Dipicolinic acid], the NFF_Activity result in series [1] was “I (key: active (A) compounds having >25% inhibitory activity; otherwise these were reported as inactive (I))”. Regarding `C[C@@H](O)[C@H]1C(=O)N2C(C(=O)O)=C(S[C@@H]3CN[C@H](CNS(N)(=O)=O)C3)[C@H](C)[C@H]12` [Doripenem], the T.vaginalis_Absorbance_Rep2 in series [2] is recorded as 0.835.
